Results: ChEMBL document CHEMBL2176900, “Design and synthesis of a novel series of bicyclic heterocycles as potent γ-secretase modulators” (J Med Chem, 2012)
The source made the active and inactive calls. No cut-off for these calls is given here.

By UniProt entry, the sequences of proteins in these tests, tags left out. Where a name states a change or a piece, a line headed by the entry shows the natural chain unless it says otherwise.
UniProt Q96BI3: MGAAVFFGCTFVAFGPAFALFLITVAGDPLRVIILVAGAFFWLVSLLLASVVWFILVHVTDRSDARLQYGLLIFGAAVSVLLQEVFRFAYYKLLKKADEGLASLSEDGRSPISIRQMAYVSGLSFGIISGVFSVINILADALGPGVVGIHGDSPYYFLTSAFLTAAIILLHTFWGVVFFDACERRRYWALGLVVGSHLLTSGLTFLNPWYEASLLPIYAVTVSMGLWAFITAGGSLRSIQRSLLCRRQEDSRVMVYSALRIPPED
UniProt Q9NZ42: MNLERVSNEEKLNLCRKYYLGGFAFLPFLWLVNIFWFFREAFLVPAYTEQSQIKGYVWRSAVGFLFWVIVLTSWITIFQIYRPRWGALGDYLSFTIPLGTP
UniProt Q8WW43: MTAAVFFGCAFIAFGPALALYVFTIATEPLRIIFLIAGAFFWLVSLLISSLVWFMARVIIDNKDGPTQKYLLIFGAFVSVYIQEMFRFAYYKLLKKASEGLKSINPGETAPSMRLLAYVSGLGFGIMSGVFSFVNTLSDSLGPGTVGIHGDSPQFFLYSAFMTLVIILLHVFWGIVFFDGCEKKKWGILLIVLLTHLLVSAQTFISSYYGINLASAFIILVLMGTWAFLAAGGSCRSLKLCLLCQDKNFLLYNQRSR
UniProt Q92542: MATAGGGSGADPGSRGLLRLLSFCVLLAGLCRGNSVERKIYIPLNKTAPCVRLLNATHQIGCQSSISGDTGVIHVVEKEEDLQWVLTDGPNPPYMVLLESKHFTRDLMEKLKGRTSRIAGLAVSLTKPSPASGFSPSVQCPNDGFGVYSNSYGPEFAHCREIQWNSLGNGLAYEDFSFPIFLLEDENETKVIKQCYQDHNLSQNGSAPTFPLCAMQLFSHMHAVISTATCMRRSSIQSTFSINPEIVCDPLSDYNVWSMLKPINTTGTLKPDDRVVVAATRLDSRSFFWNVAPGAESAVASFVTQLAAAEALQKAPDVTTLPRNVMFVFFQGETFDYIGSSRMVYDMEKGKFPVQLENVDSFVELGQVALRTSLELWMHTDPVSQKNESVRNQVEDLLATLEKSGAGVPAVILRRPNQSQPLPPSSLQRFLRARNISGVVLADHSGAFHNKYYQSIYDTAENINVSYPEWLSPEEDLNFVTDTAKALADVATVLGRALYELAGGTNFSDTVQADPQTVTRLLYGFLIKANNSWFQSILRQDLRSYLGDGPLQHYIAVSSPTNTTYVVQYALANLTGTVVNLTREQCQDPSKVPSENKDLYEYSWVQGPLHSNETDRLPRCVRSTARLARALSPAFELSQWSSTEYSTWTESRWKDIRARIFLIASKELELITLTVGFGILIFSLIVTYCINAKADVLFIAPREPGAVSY

What was measured:
[1] = biological target: Gamma-secretase (Homo sapiens) (UniProt Q96BI3+Q9NZ42+Q8WW43+P49768+Q92542+P49810); assay: Inhibition of gamma-secretase in human SK-N-BE(2) cells expressing wild type APP 695 assessed as reduction in total amyloid beta level up to 10 uM after overnight incubation by sandwich immunoassay; format: cell-based
Outline: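 SK-N-BE(2) cells with wild-type APP695 were plated at 10⁴ cells/well in supplemented Ultraculture with test compound at several concentrations. They were incubated overnight at 37 °C, 5% CO₂. Supernatant Aβtotal was measured by AlphaLisa sandwich immunoassay (JRF/AβN/25 capture, biotinylated 4G8). Data are % of the maximum Aβtotal seen without compound.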

[2] = system: Gamma-secretase (Homo sapiens); assay: Inhibition of gamma-secretase in human SK-N-BE(2) cells expressing wild type APP 695 assessed as reduction in total amyloid beta level up to 10 uM after overnight incubation by sandwich immunoassay

SMILES | inhibition [1] | inhibition [2]
COc1cc(/C=C2\CCCN([C@@H](C)c3ccc(F)cc3)C2=O)ccc1-n1cnc(C)c1 | inactive | –
COc1nc(Nc2cccc3c2nc(-c2ccc(F)cc2)n3C)ccc1-n1cnc(C)c1 | – | inactive
